From patent US11371077B2, “High throughput cell-based screening for aptamers” (MeiraGTx UK II Limited, priority 2016, dated 2022)

System: xpt-G17 riboswitch
Assay: Luciferase reporter assay, xpt-G17 riboswitch, transfected HEK 293 cells
Type: cell-based
Details: 100 µM

Avermectin B1
Fold Induction of luciferase activity: 4.0 fold
